Results from PubChem BioAssay AID588674 (Broad Institute, 2011).
Only a part is listed here, and it is no random draw. Active and inactive are the calls of the source.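 How the source made its calls: active means mean inhibition of at least 75% with every replicate also reaching 75%; inconclusive means mean inhibition at least 75% but some replicate below; inactive means mean inhibition below 75%.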

Test: reduction of Shn3 3'UTR firefly luciferase signal, primary screen, Schnurri-3 inhibitor project, cell-based, Clone20 osteoblasts, set 2 (AID 588674);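 further: 0% = median of neutral control wells and 100% = pilot-screen positive control compound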
Conditions: Clone20 osteoblast Shn3 3'UTR firefly luciferase, 24 h; at 12.5 µM; hits give high values
With CC(C)c1ccc(NC2CCN(C(=O)OC(C)(C)C)CC2)cc1 the inhibition was inactive: -31.5%.
For CCCCn1nnnc1C(c1ccccc1OC(F)(F)F)N1CCC(n2c(=O)[nH]c3ccccc32)CC1 (configuration not stated), the inhibition was inactive: 11.2%.
For COc1ccc(CN(CCCl)CCCl)cc1Cl, the inhibition was inactive: 7.01%.
For CN(C)c1cccc(C(=O)NCC2(N3CCCCC3)CCCCC2)c1, the inhibition was inactive: 8.88%.
For COc1cc(OC)c(C(=O)NCC2(N(C)C)CCCCC2)cc1OC, the inhibition was inactive: 9.25%.
In the case of O=C(NCC1(N2CCOCC2)CCCCC1)c1cc(F)c(F)cc1Cl, the inhibition was inactive: 8.22%.
With CCC(c1nnnn1C(C)(C)C)N1CCC(n2c(=O)[nH]c3ccccc32)CC1 (configuration not stated) the inhibition was inactive: 16.7%.
For CCCCn1nnnc1C(c1ccnc2ccccc12)N1CCC(n2c(=O)[nH]c3ccccc32)CC1 (configuration not stated), the inhibition was inactive: 9.26%.
In the case of CN1CCC(Nc2cccc(F)c2)CC1, the inhibition was inactive: -9.05%.
In the case of O=C(NCC1(N2CCCCC2)CCCCC1)c1cncc(Br)c1, the inhibition was inactive: 10.2%.
For COc1ccc(C(c2nnnn2C2CCCC2)N2CCC(n3c(=O)[nH]c4ccccc43)CC2)cc1 (configuration not stated), the inhibition was inactive: -14.3%.
For Cc1ccc(C(=O)NCC2(N(C)C)CCCCC2)o1, the inhibition was inactive: 0.293%.
In the case of CCCOc1ccc(C(=O)NCC2(N(C)C)CCCCC2)cc1OC, the inhibition was inactive: -12%.
In the case of CC(C)(C)n1nnnc1C(c1ccccc1OC(F)(F)F)N1CCC(n2c(=O)[nH]c3ccccc32)CC1 (configuration not stated), the inhibition was inactive: 17.5%.
For O=C(NCC1(N2CCCCC2)CCCCC1)c1ccc(OC(F)F)cc1, the inhibition was inactive: -14.1%.
With CCN1CCC(Nc2ccc(Cl)cc2)CC1 the inhibition was inactive: -0.377%.
In the case of O=c1[nH]c2ccccc2n1C1CCN(C(c2ccccc2OC(F)(F)F)c2nnnn2C2CCCC2)CC1 (configuration not stated), the inhibition was inactive: -11.5%.
For N#CC1(Nc2ccccc2)CCN(CCc2ccccc2)CC1, the inhibition was inactive: 21%.
For CSc1ccc(C(=O)NCC2(N3CCOCC3)CCCCC2)cc1, the inhibition was inactive: 1.61%.
For O=C(NCC1(N2CCCCC2)CCCCC1)c1cccc([N+](=O)[O-])c1, the inhibition was inactive: -12.8%.
For O=C(NCC1(N2CCCCC2)CCCCC1)c1cccc(C(F)(F)F)c1, the inhibition was inactive: 0.239%.
For O=C(NCC1(N2CCOCC2)CCCCC1)c1cc(=O)[nH]c2ccccc12, the inhibition was inactive: -9.15%.
For COc1cc(C(=O)NCC2(N3CCCCC3)CCCCC2)ccc1OC(F)F, the inhibition was inactive: 22.9%.
With CC(C)c1ccc(C(=O)NCC2(N3CCOCC3)CCCCC2)cc1 the inhibition was inactive: -15.8%.
With COc1ccc(NC2CCN(C(=O)OC(C)(C)C)CC2)cc1 the inhibition was inactive: 17.4%.
In the case of CN1CCN(CCOC(=O)C(O)(c2ccccc2)c2ccccc2)CC1, the inhibition was inactive: 0.597%.
In the case of CCCCn1nnnc1C(c1cccc2ccccc12)N1CCC(n2c(=O)[nH]c3ccccc32)CC1 (configuration not stated), the inhibition was inactive: -5.07%.
With CC(C)(C)n1nnnc1C(c1ccccc1)N1CCC(n2c(=O)[nH]c3ccccc32)CC1 (configuration not stated) the inhibition was inactive: -11.9%.
With O=C1CCN(Cc2ccccc2)CC1 the inhibition was inactive: -11.8%.
In the case of CCOc1ccc(C)cc1CN(CCCl)CCCl, the inhibition was inactive: -15.3%.
For CCCCOc1ccc(C(=O)NCC2(N3CCOCC3)CCCCC2)cc1, the inhibition was inactive: 17.7%.
With O=P1(N(CCCl)CCCl)SCCCS1 the inhibition was inactive: -17.9%.
With CCCCn1nnnc1C(c1cc2ccccc2o1)N1CCC(n2c(=O)[nH]c3ccccc32)CC1 (configuration not stated) the inhibition was inactive: 6.58%.
In the case of O=C(NCC1(N2CCCCC2)CCCCC1)c1ccc(F)cc1, the inhibition was inactive: 12.1%.
With CCOC(=O)N1CCC(Nc2ccc(F)cc2)CC1 the inhibition was inactive: 0.447%.
In the case of COc1ccc(NC2CCN(CCc3ccccc3)CC2)c(OC)c1, the inhibition was inactive: -9.3%.
In the case of O=c1[nH]c2ccccc2n1C1CCN(C(c2ccccc2)c2nnnn2C2CCCCC2)CC1 (configuration not stated), the inhibition was inactive: 14.6%.
In the case of CCOC(=O)N1CCC(Nc2cccc(C)c2)CC1, the inhibition was inactive: -37.8%.
With COc1cc(C(=O)NCC2(N(C)C)CCCCC2)ccc1OC(F)F the inhibition was inactive: -7.97%.
For O=c1[nH]c2ccccc2n1C1CCN(C(c2cccc3ccccc23)c2nnnn2C2CCCC2)CC1 (configuration not stated), the inhibition was inactive: 9.01%.
With COc1ccc(C(=O)NCC2(N3CCCCC3)CCCCC2)cc1 the inhibition was inactive: -0.846%.
For CC(C)(C)OC(=O)N1CCC(N(C(=O)c2ccccc2)c2ccc(F)cc2)CC1, the inhibition was inactive: -0.658%.
For COc1ccc(C(=O)NCC2(N3CCCCC3)CCCCC2)c(OC)c1OC, the inhibition was inactive: 5.84%.
For CCC(c1nnnn1C1CCCC1)N1CCC(n2c(=O)[nH]c3ccccc32)CC1 (configuration not stated), the inhibition was inactive: 13.4%.
For O=C(NCC1(N2CCCCC2)CCCCC1)c1ccc(=O)[nH]c1, the inhibition was inactive: -25.3%.
For O=C(NCC1(N2CCCCC2)CCCCC1)c1cccs1, the inhibition was inactive: 2.51%.
With CCCCn1nnnc1C(CC)N1CCC(n2c(=O)[nH]c3ccccc32)CC1 (configuration not stated) the inhibition was inactive: 13.1%.
In the case of CCCCn1nnnc1C(c1cccs1)N1CCC(n2c(=O)[nH]c3ccccc32)CC1 (configuration not stated), the inhibition was inactive: -2.17%.
In the case of CSc1ccccc1C(=O)NCC1(N2CCCCC2)CCCCC1, the inhibition was inactive: 10.9%.
With Cc1cccc(NC2(C#N)CCN(Cc3ccccc3)CC2)c1 the inhibition was inactive: -6.18%.
With O=C(NCC1(N2CCCCC2)CCCCC1)c1ccc(Cl)nc1 the inhibition was inactive: -11.4%.
For O=c1[nH]c2ccccc2n1C1CCN(C(c2ccccc2OC(F)(F)F)c2nnnn2C2CCCCC2)CC1 (configuration not stated), the inhibition was inactive: 8.69%.
For Cc1cc(C)cc(N(C(=O)c2ccccc2)C2CCN(C(=O)OC(C)(C)C)CC2)c1, the inhibition was inactive: 46.4%.
In the case of O=C(NCC1(N2CCOCC2)CCCCC1)c1cc2ccccc2o1, the inhibition was inactive: -12.1%.
With N#CC1(Nc2ccccc2)CCN(Cc2ccccc2)CC1 the inhibition was inactive: 11.7%.
With O=C(NCC1(N2CCCCC2)CCCCC1)c1ccc(Cl)s1 the inhibition was inactive: -3%.
With O=c1[nH]c2ccccc2n1C1CCN(C(c2cc3ccccc3o2)c2nnnn2C2CCCCC2)CC1 (configuration not stated) the inhibition was inactive: -22.2%.
With O=C(OC1CN2CCC1CC2)C1c2ccccc2Oc2ccccc21 (configuration not stated) the inhibition was inactive: 12.6%.
In the case of COc1ccc(Cl)cc1C(=O)NCC1(N2CCOCC2)CCCCC1, the inhibition was inactive: -7.29%.
With CCOC(=O)N1CCC(Nc2ccc(OC)cc2)CC1 the inhibition was inactive: 4.28%.
For CCCCn1nnnc1C(c1ccc(OC)cc1)N1CCC(n2c(=O)[nH]c3ccccc32)CC1 (configuration not stated), the inhibition was inactive: -1.48%.
For CCOc1ncccc1C(=O)NCC1(N2CCOCC2)CCCCC1, the inhibition was inactive: 25.9%.
With CN1CCC(Nc2ccc(F)c(Cl)c2)CC1 the inhibition was inactive: 10.2%.
With CC(C)(C)OC(=O)N1CCC(Nc2ccccc2)CC1 the inhibition was inactive: -21.2%.
In the case of O=C(O)C1(Nc2ccccc2)CCN(Cc2ccccc2)CC1, the inhibition was inactive: 6.22%.
With O=c1[nH]c2ccccc2n1C1CCN(C(c2cc3ccccc3o2)c2nnnn2C2CCCC2)CC1 (configuration not stated) the inhibition was inactive: -2.29%.
With CCCOc1ccc(C(=O)NCC2(N(C)C)CCCCC2)cc1 the inhibition was inactive: -8.9%.
With COc1cccc(C(=O)N(c2cc(C)cc(C)c2)C2CCN(C(=O)OC(C)(C)C)CC2)c1 the inhibition was inactive: 50.5%.
In the case of COc1cccc(C(c2nnnn2C2CCCC2)N2CCC(n3c(=O)[nH]c4ccccc43)CC2)c1OC (configuration not stated), the inhibition was inactive: -15.2%.
In the case of COc1cc(OC)cc(C(=O)NCC2(N3CCOCC3)CCCCC2)c1, the inhibition was inactive: -21.7%.
With CCC(CO)(C(=O)OC1CN2CCC1CC2)c1ccccc1 (configuration not stated) the inhibition was inactive: -5.83%.
With CN1CCC(Nc2ccc(Cl)cc2)CC1 the inhibition was inactive: 3.97%.
With COc1cccc(C(c2nnnn2C2CCCCC2)N2CCC(n3c(=O)[nH]c4ccccc43)CC2)c1OC (configuration not stated) the inhibition was inactive: 5.68%.
In the case of CC(=O)N(c1ccccc1)C1CCNCC1, the inhibition was inactive: -26.6%.
For CCC(c1nnnn1C1CCCCC1)N1CCC(n2c(=O)[nH]c3ccccc32)CC1 (configuration not stated), the inhibition was inactive: 29.5%.
For COc1cc(OC)cc(C(=O)NCC2(N3CCCCC3)CCCCC2)c1, the inhibition was inactive: -14.8%.
With O=c1[nH]c2ccccc2n1C1CCN(C(c2ccnc3ccccc23)c2nnnn2C2CCCCC2)CC1 (configuration not stated) the inhibition was inactive: 4.5%.
With Cc1ccc(C(=O)NCC2(N3CCCCC3)CCCCC2)o1 the inhibition was inactive: -0.118%.
In the case of Fc1ccccc1NC1CCN(Cc2ccccc2)CC1, the inhibition was inactive: -14.1%.
For Cc1ccc(NC2(C#N)CCN(Cc3ccccc3)CC2)cc1, the inhibition was inactive: 3.92%.
For Cc1ccccc1NC1(C#N)CCN(Cc2ccccc2)CC1, the inhibition was inactive: 6.52%.
For CCN1CCC(Nc2cccc(F)c2)CC1, the inhibition was inactive: -10.6%.
In the case of COc1ccc(C(c2nnnn2C2CCCCC2)N2CCC(n3c(=O)[nH]c4ccccc43)CC2)cc1 (configuration not stated), the inhibition was inactive: 6.75%.
In the case of CC(C)(C)n1nnnc1C(c1ccnc2ccccc12)N1CCC(n2c(=O)[nH]c3ccccc32)CC1 (configuration not stated), the inhibition was inactive: 9.34%.
With O=C(NCC1(N2CCCCC2)CCCCC1)c1ccco1 the inhibition was inactive: 14.5%.
For CN(C)c1ccc(C(=O)NCC2(N3CCCCC3)CCCCC2)cc1, the inhibition was inactive: -2.25%.
With Cn1c(=O)[nH]cc(N(CCCl)CCCl)c1=O the inhibition was inactive: 4.36%.
In the case of N#Cc1ccc(C(=O)NCC2(N3CCCCC3)CCCCC2)cc1, the inhibition was inactive: 3.12%.
For CC(C)(C)OC(=O)N1CCC(N(C(=O)c2ccccc2)c2ccc(Cl)cc2)CC1, the inhibition was inactive: -2.08%.
For CN(C)C1(CNC(=O)c2cccc(C#N)c2)CCCCC1, the inhibition was inactive: -6.35%.
For c1ccc(CN2CCC(Nc3ccccc3)CC2)cc1, the inhibition was inactive: 6.11%.
With Cc1cc(N(CCCl)CCCl)ccc1C=O the inhibition was inactive: 2.26%.
With CCCN1CCC(Nc2cc(OC)cc(OC)c2)CC1 the inhibition was inactive: 2.38%.
In the case of O=c1[nH]c2ccccc2n1C1CCN(C(c2ccccc2)c2nnnn2C2CCCC2)CC1 (configuration not stated), the inhibition was inactive: 3.48%.
In the case of CC(C)(C)n1nnnc1C(c1cccc2ccccc12)N1CCC(n2c(=O)[nH]c3ccccc32)CC1 (configuration not stated), the inhibition was inactive: 9.67%.
For CCCCn1nnnc1C(c1ccccc1)N1CCC(n2c(=O)[nH]c3ccccc32)CC1 (configuration not stated), the inhibition was inactive: 1.59%.
For COc1cc(C(=O)NCC2(N3CCOCC3)CCCCC2)cc(OC)c1C, the inhibition was inactive: 16.3%.
For O=C(NCC1(N2CCOCC2)CCCCC1)c1cc(Br)ccc1Cl, the inhibition was inactive: -0.955%.
For O=c1[nH]c2ccccc2n1C1CCN(C(c2cccs2)c2nnnn2C2CCCCC2)CC1 (configuration not stated), the inhibition was inactive: 15.6%.
In the case of COc1ccc(C(=O)NCC2(N3CCOCC3)CCCCC2)cc1OC, the inhibition was inactive: -19%.
For O=c1[nH]c2ccccc2n1C1CCN(C(c2ccnc3ccccc23)c2nnnn2C2CCCC2)CC1 (configuration not stated), the inhibition was inactive: -26.5%.
In the case of CCOC(=O)N1CCC(Nc2ccc(C)cc2)CC1, the inhibition was inactive: 24.6%.
With COc1cccc(C(c2nnnn2C(C)(C)C)N2CCC(n3c(=O)[nH]c4ccccc43)CC2)c1OC (configuration not stated) the inhibition was inactive: -27.7%.
With N/C(=N\O)c1c(N)no[n+]1[O-] the inhibition was inactive: -16%.
For O=C(OC1CN2CCC1CC2)C1c2ccccc2C=Cc2ccccc21 (configuration not stated), the inhibition was inactive: 2.62%.
For O=c1[nH]c2ccccc2n1C1CCN(C(c2cccs2)c2nnnn2C2CCCC2)CC1 (configuration not stated), the inhibition was inactive: 12.2%.
With CCCCn1nnnc1C(c1cccc(OC)c1OC)N1CCC(n2c(=O)[nH]c3ccccc32)CC1 (configuration not stated) the inhibition was inactive: 23.4%.
